For one assay, the target named is T1, human CD73 (Homo sapiens, UniProt P21589).
T1 construct: expressed in transfected cells; stably transfected in method 5.1)
T1 sequence (P21589 27-549): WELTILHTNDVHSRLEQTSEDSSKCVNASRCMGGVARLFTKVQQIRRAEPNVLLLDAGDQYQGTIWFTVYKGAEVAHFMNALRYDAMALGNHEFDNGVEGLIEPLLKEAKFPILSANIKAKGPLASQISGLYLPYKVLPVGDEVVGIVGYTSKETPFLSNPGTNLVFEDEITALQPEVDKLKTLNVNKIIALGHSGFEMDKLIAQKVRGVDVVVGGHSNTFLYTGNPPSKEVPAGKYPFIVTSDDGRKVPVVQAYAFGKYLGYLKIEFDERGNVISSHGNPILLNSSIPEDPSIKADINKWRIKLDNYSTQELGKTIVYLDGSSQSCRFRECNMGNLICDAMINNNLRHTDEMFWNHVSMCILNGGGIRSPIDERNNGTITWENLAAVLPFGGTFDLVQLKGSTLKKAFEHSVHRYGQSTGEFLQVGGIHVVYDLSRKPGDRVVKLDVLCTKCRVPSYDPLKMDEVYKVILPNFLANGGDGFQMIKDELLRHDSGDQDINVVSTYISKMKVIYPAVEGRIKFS
Description: Flow cytometry binding of rabbit IgG hcAbs to human CD73-transfected HEK cells. As to conditions: family representative clone; h = binds human CD73, m = binds mouse CD73. As for the experimental part:
HEK cells were co-transfected with expression vectors for green fluorescent protein (GFP) and human CD73, mouse CD73, and a control cell surface protein (CD39). 48 h after transfection, cells were incubated with HEK cell supernatants containing the indicated rabbit IgG hcAbs. Bound antibodies were detected with PE-conjugated anti rabbit IgG secondary antibody.
• 5.1 Untransfected HEK293 cells and HEK293 cells stably transfected with human or mouse CD73 were incubated for 30 min with HEK-6E cell supernatants containing rabbit IgG hcAbs (diluted 1:10 in PBS/0.1% BSA). Following washing with PBS/0.1% BSA, bound antibodies were detected with PE-conjugated goat anti-rabbit IgG polyclonal antibody (711-116-152 Dianova, Hamburg). • 5.2 For dissociation analyses, two separate aliquots of CD73-transfected cells were incubated either with Cell Proliferation Dye eFluor 450 (eBioscience) or with hcAbs for 20 min at RT. […] Cells were washed and analyzed by flow cytometry on a BD-FACS Canto. Data were analyzed using the FlowJo software (Treestar).
The binding specificities of the purified hcAbs were determined by flow cytometry using HEK cells transiently co-transfected with expression vectors for GFP and either mouse CD73, human CD73 or a control protein (CD39). […] The cells were resuspended in PBS and analyzed by flow cytometry on FACS Canto or FACS Celesta (BD Biosciences, Heidelberg). […]

For assay [1], the target named is T2, native CD73 on the cell surface of peripheral blood leukocytes (PBMCs) (Homo sapiens, UniProt P21589).
T2 construct: endogenous in cells; host or cells: human PBMCs (B and T lymphocytes)
T2 sequence (P21589 27-549): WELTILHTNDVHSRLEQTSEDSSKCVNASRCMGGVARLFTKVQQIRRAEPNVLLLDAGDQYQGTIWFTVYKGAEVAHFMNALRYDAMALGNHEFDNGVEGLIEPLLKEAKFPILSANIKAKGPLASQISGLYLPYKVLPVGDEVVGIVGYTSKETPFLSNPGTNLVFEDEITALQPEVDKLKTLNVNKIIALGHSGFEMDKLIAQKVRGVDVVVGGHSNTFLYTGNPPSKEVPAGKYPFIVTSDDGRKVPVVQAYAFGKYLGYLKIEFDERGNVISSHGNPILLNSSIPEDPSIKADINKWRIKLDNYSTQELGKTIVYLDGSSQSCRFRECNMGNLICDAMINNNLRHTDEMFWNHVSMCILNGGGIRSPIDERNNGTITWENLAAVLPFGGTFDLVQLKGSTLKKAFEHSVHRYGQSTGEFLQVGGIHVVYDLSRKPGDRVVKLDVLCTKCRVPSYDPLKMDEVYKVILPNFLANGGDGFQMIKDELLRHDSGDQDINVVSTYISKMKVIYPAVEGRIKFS
Description: Flow cytometry binding of hcAbs to native CD73 on blood leukocytes. The settings on record: lymphocyte gate, co-stained for CD3 and CD19. As for the experimental part: Purified hcAbs were analysed for binding to native CD73 on the cell surface of peripheral blood leukocytes (PBMCs) by flow cytometry. To this end purified human PBMCs were incubated for 30 min at RT with 10 μl of rabbit hcAb-containing HEK-6E cell supernatants and bound antibodies were detected with a FITC conjugated anti rabbit IgG secondary antibody. To distinguish between B lymphocytes most of which express high levels of cell surface CD73, and T lymphocytes a subset of which express moderate levels of cell surface CD73, cells were co-stained with PE-conjugated mouse anti-human CD3 mAb (UCHT1) and a PerCP/Cy5.5-conjugated mouse anti-human CD19 mAb (HIB19). After washing the cells, cells were analyzed by flow cytometry. A hcAb binding only to murine CD39 (SB30) was used as a negative control. As positive control, a FITC-conjugated monoclonal antibody against CD73 (clone AD2, Biolegend) was used. Gating was performed on lymphocytes on the basis of forward and side scattered light.
(In general: In flow cytometry, cells or beads pass a laser one at a time.)

In assay [2] the target is T3, soluble human CD73 (Homo sapiens, UniProt P21589).
T3 construct: The ectodomain of CD73 (aa 27-549) was expressed as a recombinant protein with a C-terminal His6× tag; His6 (C); made in house; host or cells: transiently transfected HEK cells
T3 sequence (P21589 27-549): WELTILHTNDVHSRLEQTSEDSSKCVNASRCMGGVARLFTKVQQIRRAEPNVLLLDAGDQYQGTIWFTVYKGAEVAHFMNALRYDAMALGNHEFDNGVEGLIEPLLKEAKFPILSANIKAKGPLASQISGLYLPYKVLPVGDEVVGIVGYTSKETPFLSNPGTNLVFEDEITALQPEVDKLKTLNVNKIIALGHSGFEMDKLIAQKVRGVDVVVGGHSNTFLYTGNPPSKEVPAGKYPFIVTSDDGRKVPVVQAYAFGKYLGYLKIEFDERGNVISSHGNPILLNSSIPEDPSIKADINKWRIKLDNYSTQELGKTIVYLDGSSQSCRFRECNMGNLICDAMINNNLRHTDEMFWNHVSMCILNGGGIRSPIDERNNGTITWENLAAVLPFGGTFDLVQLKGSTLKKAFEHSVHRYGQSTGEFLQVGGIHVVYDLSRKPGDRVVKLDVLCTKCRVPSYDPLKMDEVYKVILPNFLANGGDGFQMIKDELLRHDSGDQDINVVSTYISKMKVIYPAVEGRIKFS
As to the kind of experiment: Off-rates of soluble CD73 from immobilized Nb-rbIgG hcAb on Octet BLI. It counts as binding. The settings on record: soluble human CD73 ectodomain 200 ng/μl as analyte; Nb-rbIgG hcAb immobilized on protein A biosensor. The method, then: The binding off-rate constants of bivalent hcAbs to human and mouse CD73 protein were determined by […] kinetic analysis on Octet RED96 (ForteBio). Immobilization of rabbit IgG hcAbs on the protein A-biosensor surface was done in HEK-6E cell supernatant, and regeneration of analytes was done with 100 mM Glycin pH=2.5. Recombinant mouse or human CD73 ectodomain was used as analytes and tested at a saturating dose of 200 ng/μl. Sensorgrams were fitted using least square regression in association than dissociation Model in Prism8 (Graphpad). The results are depicted in Tables 2 and 3. Off-rates ranged from 2E^−3 to 4 E^−5 1/s.

The target of assay [3] is T4, human CD73-transfected HEK cells (Homo sapiens, UniProt P21589).
T4 construct: expressed in transfected cells; stably transfected in method 5.1)
T4 sequence (P21589 27-549): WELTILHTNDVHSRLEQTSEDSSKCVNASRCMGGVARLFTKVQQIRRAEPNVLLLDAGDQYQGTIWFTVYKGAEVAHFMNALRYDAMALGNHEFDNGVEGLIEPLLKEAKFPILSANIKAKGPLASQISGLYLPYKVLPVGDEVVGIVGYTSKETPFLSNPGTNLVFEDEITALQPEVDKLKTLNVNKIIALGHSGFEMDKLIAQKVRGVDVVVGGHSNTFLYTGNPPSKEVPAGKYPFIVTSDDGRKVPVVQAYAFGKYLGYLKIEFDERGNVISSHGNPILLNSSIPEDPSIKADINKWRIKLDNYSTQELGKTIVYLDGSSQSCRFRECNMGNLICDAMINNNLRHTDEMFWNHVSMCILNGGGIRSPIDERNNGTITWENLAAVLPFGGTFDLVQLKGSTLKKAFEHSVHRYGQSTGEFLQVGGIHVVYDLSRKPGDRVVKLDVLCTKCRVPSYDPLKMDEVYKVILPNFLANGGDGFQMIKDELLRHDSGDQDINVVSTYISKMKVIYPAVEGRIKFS
Description: Epitope binning by flow cytometry (human IgG hcAb blocks rabbit IgG hcAb). It counts as binding. The settings on record: epitope assignment on human CD73 from binning. The method, then: • 5.1 Untransfected HEK293 cells and HEK293 cells stably transfected with human or mouse CD73 were incubated for 30 min with HEK-6E cell supernatants containing rabbit IgG hcAbs (diluted 1:10 in PBS/0.1% BSA). Following washing with PBS/0.1% BSA, bound antibodies were detected with PE-conjugated goat anti-rabbit IgG polyclonal antibody (711-116-152 Dianova, Hamburg). • 5.2 For dissociation analyses, two separate aliquots of CD73-transfected cells were incubated either with Cell Proliferation Dye eFluor 450 (eBioscience) or with hcAbs for 20 min at RT. […] The dissociation of hcAbs from the target cells and association with the eFluor 450 labeled cells was analyzed by flow cytometry using the FlowJo software (Treestar). • 5.3 For epitope analyses, cells were preincubated with excess human IgG hcAbs (10 μl HEK-6E cell supernatant/100 μl PBS/0.1% BSA) for 30 min at RT before addition of Nb-rabbit IgG hcAbs (1 μl HEK-6E cell supernatant/100 μl PBS/0.1% BSA) and further incubation for 20 min at RT and staining with PE-conjugated anti-rabbit polyclonal antibody (711-116-152 Dianova, Hamburg). Cells were washed and analyzed by flow cytometry on a BD-FACS Canto. Data were analyzed using the FlowJo software (Treestar). […]

The target of assay [4] is T3, soluble human CD73. As to the kind of experiment: AMP hydrolysis by soluble CD73, DPEA-Napht-Azide fluorescence assay. As to conditions: 50 ng CD73, 30 min pre-incubation with 10 μl hcAb supernatant, 1 mM AMP. The format is biochemical. The method, then:
Recombinant human CD73 (50 ng) was pre-incubated for 30 min with hcAbs at RT in 96 well plates before addition of AMP and DPEA-Napht-Azide. Fluorescence signals were detected every 50 seconds for 30 repeats. ARFU values (>10^3/min) were calculated for a 10 min interval during the linear phase (from 5 min to 15 min) using Prism software (Graphpad). A non-specific rabbit IgG hcAb was used as control.
• 4.1 CD73 catalyzes the hydrolysis of AMP to adenosine. This reaction can be monitored by the shift in fluorescence intensity of DPEA-Napht-Azide. This property was used to determine whether hcAbs could interfere with the enzymatic activity of CD73. Soluble recombinant human CD73 (50 ng) was pre-incubated for 30 min with Nbs or hcAbs (10 μl HEK-6E cell supernatant containing 10-100 μg/ml hcAb) at RT in 96 well plates before addition of AMP (Sigma) to a final concentration of 1 mM and of DPEA-Napht-Azide to a final concentration of 50 μM. • 4.2 Fluorescence signals were recorded in white Nunc MicroWell plates (Nunc, 136101) on a Victor III plate reader (Perkin Elmer) (Exicitation filter: F485, Emission Filter: F535; CW-Lamp energy: 40000, counting time: 0.1 s). Data analyses were performed using Prism (Graphpad). […]

The values below come from US20240417484A1, “ANTIGEN-BINDING POLYPEPTIDES AGAINST CD73” (UNIVERSITÄTSKLINIKUM HAMBURG-EPPENDORF, priority 2021, published 2024).

B1: SB96: CD73-specific alpaca VHH clone, family 1, SEQ ID NO:61; tested as rabbit or human IgG hcAb (antibody)
heavy: DVQLQASGGGLVQPGGSLRLSCTASGFTLDYLSIGWFRQVPGKEREGVSCINSSGGSTNYADSLKGRLTISRDNAKNTVYLQMNSLKPEDTAVYYCAAHKYYYCSNKVEVFDYWGQGTPVTVSS
modifications: left off: a dimerising Fc or GST
notes: tested as rabbit or human IgG hcAb
On to B1, for which the specificity result in the assay with human CD73 is “h + m”. Also, the “staining of native CD73 on human PBMCs” value in assay [1] was “on most B cells and on a subset of T cells”. In addition, in the assay with soluble human CD73 [2], the Kdis was 3.9e-05 s⁻¹. In addition, in assay [3], the Epitope worked out at 1. Further, in the assay with soluble human CD73 [4], the “effect on hydrolysis of AMP by soluble CD73” value is given as “effectively blocked hydrolysis of AMP”.
